# Measured values as given in US20230416329A1, “A PEPTIDE WITH DISULFIDE BONDS AND INHIBITORY ACTIVITY AGAINST SERINE PROTEASES, DERIVED HYBRID PEPTIDES THEREOF, AND USES THEREOF” (INSTITUTE OF MATERIA MEDICA , CHINESE ACADEMY OF MEDICAL …, priority 2020, published 2023).
# Experiments:
# [1] = target: DPP-IV (Homo sapiens, UniProt P27487); experiment: Tolerance of GLP-1 and its analogues to DPP-IV (RP-HPLC remaining peak area); assay type: in vitro ADME; settings: peptide 25 μM, DPP-IV 0.5 ng/μL, 37° C.; for Remaining peak area (%)/DPP-IV: 0.0 h; for remaining at 0.5 h, 25 μM / remaining at 2 h, 25 μM / remaining at 4 h, 25 μM / remaining at 8 h, 25 μM / remaining at 12 h, 25 μM: isolated DPP-IV enzyme in buffer, pH 8
# Experimental: (§1) Mix by centrifugation at 8000 rpm for 30 seconds.
# (2) Arrange a certain volume of 0.005 μg/μL DPP-IV solution in another sterile EP.
# [2] = target: NEP24.11 (Homo sapiens, UniProt P08473); experiment: Tolerance of GLP-1 and its analogues to NEP24.11 (RP-HPLC remaining peak area); assay type: in vitro ADME; settings: peptide 30 μM, NEP24.11 1.0 ng/μL, 37° C.; for Remaining peak area (%)/NEP24.11: 0.0 h; for remaining at 0.5 h, 30 μM / remaining at 2 h, 30 μM / remaining at 4 h, 30 μM / remaining at 8 h, 30 μM: isolated NEP24.11 enzyme in buffer; for remaining at 0.5 h, 30 μM: pH 7.4, 0.5 h; for remaining at 2 h, 30 μM: pH 7.4, 2.0 h; for remaining at 4 h, 30 μM: pH 7.4, 4.0 h; for remaining at 8 h, 30 μM: pH 7.4, 8.0 h
# Experimental: as §1
# Arrange a certain volume of 0.04 μg/μL NEP24.11 enzyme solution in another sterile EP.
# [3] = target: T1, trypsin (Bos taurus, UniProt P00760); experiment: in vitro; settings: isolated enzyme trypsin, pH 7.8
# T1 sequence (P00760 24-246): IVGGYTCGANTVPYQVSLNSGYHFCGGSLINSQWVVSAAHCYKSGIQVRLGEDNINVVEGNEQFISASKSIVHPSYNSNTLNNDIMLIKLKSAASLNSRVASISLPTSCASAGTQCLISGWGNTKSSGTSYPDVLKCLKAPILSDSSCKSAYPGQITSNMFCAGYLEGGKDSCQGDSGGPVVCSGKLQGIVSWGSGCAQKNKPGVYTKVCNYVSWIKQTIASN
# Experimental: FIG. 17. […] At different time point, 25 μL aliquots was taken out, and 10% (v/v) TFA was added to terminate the reaction.
# as §1
# (§2) Arrange a certain volume of 0.05 μg/μL trypsin solution in another sterile EP. Incubate the EP tubes containing peptides and enzymes at 37° C. for 5 min, and separately add 6 μL of trypsin solution to each EP tube containing peptides and mix well. Start timing and extract 25 μL of reaction solution at 1.5, 3.0, 4.5, 6.0 and 9.0 min later, respectively. Add 3.75 μL of 10% TFA to terminate the reaction and mix well by centrifugation at 8000 rpm for 30 seconds.
# as §2, with “and” for “and separately”, “9” for “6”, “6.0, 9.0, 15.0, 30.0,” for “6.0”, “60.0” for “9.0”
# (§3) Referring to the experimental method in Example 5, in vitro stability of salmon Calcitonin analogs with oral administration activity to the enzymatic hydrolysis by trypsin, chymotrypsin and elastase were performed.
# (§4) Referring to the experimental method in Example 5, in vitro stability of IL-17A inhibitory peptides towards the enzymatic hydrolysis by trypsin, chymotrypsin and elastase were performed.
# [4] = target: chymotrypsin (Bos taurus, UniProt P00766); experiment: in vitro; settings: isolated enzyme chymotrypsin, pH 7.8, Remaining peak area (%)/chymotrypsin
# Experimental: FIG. 18. […] At different time point, 25 μL aliquots was taken out, and 10% (v/v) TFA was added to terminate the reaction.
# as §1
# as §2, with “μg/μL chymotrypsin” for “μg/μL trypsin”, “and” for “and separately”, “add 3” for “add 6”
# as §2, with “chymotrypsin” for “trypsin”, “then” for “separately”, “4.5” for “6”, “6.0, 9.0, 15.0, 30.0,” for “6.0”, “60.0” for “9.0”
# as §3, §4
Compound,Remaining peak area (%)/DPP-IV [1] [%],"remaining at 0.5 h, 25 μM [1] [%]","remaining at 2 h, 25 μM [1] [%]","remaining at 4 h, 25 μM [1] [%]","remaining at 8 h, 25 μM [1] [%]","remaining at 12 h, 25 μM [1] [%]",Remaining peak area (%)/NEP24.11 [2] [%],"remaining at 0.5 h, 30 μM [2] [%]","remaining at 2 h, 30 μM [2] [%]","remaining at 4 h, 30 μM [2] [%]","remaining at 8 h, 30 μM [2] [%]","remaining at 0.025 h, 60 μM [3] [%]","remaining at 0.05 h, 60 μM [3] [%]","remaining at 0.075 h, 60 μM [3] [%]","remaining at 0.1 h, 60 μM [3] [%]","remaining at 0.025 h, 60 μM [4] [%]","remaining at 0.05 h, 60 μM [4] [%]","remaining at 0.075 h, 60 μM [4] [%]","remaining at 0.1 h, 60 μM [4] [%]","remaining at 0.15 h, 60 μM [4] [%]",further results
CC[C@H](C)[C@H](NC(=O)[C@H](Cc1ccccc1)NC(=O)[C@H](CCC(=O)O)NC(=O)[C@H](CCCCN)NC(=O)[C@H](C)NC(=O)[C@H](C)NC(=O)[C@H](CCC(N)=O)NC(=O)CNC(=O)[C@H](CCC(=O)O)NC(=O)[C@H](CC(C)C)NC(=O)[C@H](Cc1ccc(O)cc1)NC(=O)[C@H](CO)NC(=O)[C@H](CO)NC(=O)[C@@H](NC(=O)[C@H](CC(=O)O)NC(=O)[C@H](CO)NC(=O)[C@@H](NC(=O)[C@H](Cc1ccccc1)NC(=O)[C@@H](NC(=O)CNC(=O)[C@H](CCC(=O)O)NC(=O)[C@H](C)NC(=O)[C@H](Cc1c[nH]cn1)NC(=O)CNC(=O)CNC(=O)[C@@H](NC(=O)[C@@H]1CCCN1C(=O)[C@@H](NC(=O)CNC(=O)CNC(=O)[C@@H]1CSSC[C@H](NC(=O)CNC(=O)CN)C(=O)N2CCC[C@H]2C(=O)N[C@@H](CCCCN)C(=O)N[C@@H]([C@@H](C)CC)C(=O)N[C@@H](CC(C)C)C(=O)N[C@@H](CCC(N)=O)C(=O)N[C@@H](CCCNC(=N)N)C(=O)N1)[C@@H](C)CC)[C@@H](C)CC)[C@@H](C)O)[C@@H](C)O)C(C)C)C(=O)N[C@@H](C)C(=O)N[C@@H](Cc1c[nH]c2ccccc12)C(=O)N[C@@H](CC(C)C)C(=O)N[C@H](C(=O)N[C@@H](CCCCN)C(=O)NCC(=O)N[C@@H](CCCNC(=N)N)C(=O)NCC(=O)NCC(=O)N[C@@H](CCCCN)C(=O)O)C(C)C [DT-GLP-1],100.0 ± 0.0,92.1 ± 5.4,97.2 ± 1.2,94.1 ± 2.2,90.3 ± 3.2,92 ± 1.4,100.0 ± 0.0,77.6 ± 1.7,76.7 ± 2.5,72.9 ± 1.7,66.4,67.5 ± 8.5,70.1 ± 11.6,61.9 ± 12.3,58.5 ± 12.5,85.2 ± 7,87.9 ± 3.9,87.3 ± 1.2,76 ± 6.7,68.6 ± 4.3,–
CC[C@H](C)[C@H](NC(=O)[C@H](Cc1ccccc1)NC(=O)[C@H](CCC(=O)O)NC(=O)[C@H](CCCCN)NC(=O)[C@H](C)NC(=O)[C@H](C)NC(=O)[C@H](CCC(N)=O)NC(=O)CNC(=O)[C@H](CCC(=O)O)NC(=O)[C@H](CC(C)C)NC(=O)[C@H](Cc1ccc(O)cc1)NC(=O)[C@H](CO)NC(=O)[C@H](CO)NC(=O)[C@@H](NC(=O)[C@H](CC(=O)O)NC(=O)[C@H](CO)NC(=O)[C@@H](NC(=O)[C@H](Cc1ccccc1)NC(=O)[C@@H](NC(=O)CNC(=O)[C@H](CCC(=O)O)NC(=O)[C@H](C)NC(=O)[C@H](Cc1c[nH]cn1)NC(=O)CNC(=O)CNC(=O)[C@@H]1CSSC[C@H](NC(=O)CNC(=O)CN)C(=O)N2CCC[C@H]2C(=O)N[C@@H](CCCCN)C(=O)N[C@@H]([C@@H](C)CC)C(=O)N[C@@H](CC(C)C)C(=O)N[C@@H](CCC(N)=O)C(=O)N[C@@H](CCCNC(=N)N)C(=O)N1)[C@@H](C)O)[C@@H](C)O)C(C)C)C(=O)N[C@@H](C)C(=O)N[C@@H](Cc1c[nH]c2ccccc12)C(=O)N[C@@H](CC(C)C)C(=O)N[C@H](C(=O)N[C@@H](CCCCN)C(=O)NCC(=O)N[C@@H](CCCNC(=N)N)C(=O)NCC(=O)NCC(=O)N[C@@H](CCCCN)C(=O)O)C(C)C [T-GLP-1],100.0 ± 0.0,67.7 ± 0.8,69.9 ± 2.2,67.5 ± 3.5,68.8 ± 1.5,68.2 ± 2.6,100.0 ± 0.0,65.8 ± 10.3,43.3 ± 8,48.5 ± 5.6,40.3 ± 3.6,60.9 ± 1.1,52.8 ± 0.9,53.6 ± 9.7,41.6 ± 3.6,58 ± 1.2,60.1 ± 2.7,55.6 ± 2.9,55.1 ± 3.6,52.6 ± 1.7,"remaining at 0.15 h, 60 μM [3]: 27.6 ± 0.1%"
